Data taken from patent US20130316985A1, “GPR35 Ligands And Uses Thereof” (CORNING INCORPORATED, priority 2012, published 2013).

By UniProt entry, the sequences of proteins in these tests, tags left out.
UniProt Q9HC97, whole entry: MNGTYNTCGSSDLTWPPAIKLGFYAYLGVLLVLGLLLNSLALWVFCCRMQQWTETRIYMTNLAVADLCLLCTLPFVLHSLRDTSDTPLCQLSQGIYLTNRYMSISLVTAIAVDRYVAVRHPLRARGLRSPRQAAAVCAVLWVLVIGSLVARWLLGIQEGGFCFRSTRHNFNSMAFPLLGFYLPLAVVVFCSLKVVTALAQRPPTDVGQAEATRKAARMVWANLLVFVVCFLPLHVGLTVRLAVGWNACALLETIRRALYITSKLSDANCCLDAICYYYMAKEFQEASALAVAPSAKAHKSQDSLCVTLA

Experiments:
GPR35 [1] = target: T1, GPR35 (Homo sapiens, UniProt Q9HC97); assay: DMR agonism assay in native HT-29 cells (Epic optical biosensor); conditions: maximal DMR response in HT-29 (2,5-DNP: amplitude at 50 min)
GPR35 [2] = target: T1, GPR35; assay: Tango β-arrestin translocation gene reporter assay in U2OS-GPR35-bla cells; type: cell-based

## Nc1cc([N+](=O)[O-])cc([N+](=O)[O-])c1O
GPR35 [1]
  Efficacy DMR: 212 ± 17 pm
GPR35 [2]; U2OS-GPR35-bla, zaprinast maximal response in same plate = 100%
  efficacy (Tango, normalized to maximal response of zaprinast): 91%
GPR35 [2]; maximal response normalized to the zaprinast maximal response
  Efficacy Tango: 91 ± 6 % zaprinast

Only a part of the results on these compounds is given; other tests are left out.
